The target of data set [1] is IDE (Homo sapiens, UniProt P14735). Kind of data set: Protease assay with fluorogenic peptide substrate Mca-[…](Dnp)-OH (IDE species not given). In kind it is biochemical. On the procedure: All data points and error bars represent mean±SEM. Significance tests were performed using two-tail Student's t-test, and significance levels shown in the figures are p<0.05 (*) or p<0.01 (**) versus the vehicle-only control group. The in vitro selection of the DNA-templated macrocycle libraryl^16,17 used 20 μg His6-tagged mouse IDE immobilized on cobalt magnetic beads (Dynabeads, Invitrogen). IDE proteolytic activity was assayed with fluorogenic peptide Mca-[…](Dnp)-OH (R&D). IDE inhibition was confirmed using an anti-insulin antibody time-resolved FRET assay (Cysbio), and using an LCMS assay for CGRP cleavage fragments CGRP1-17 and CGRP18-37 in plasma^18. […] Stable-isotope LCMS quantitation of 6bK in biological samples was performed by spiking heavy-labeled 6bK synthesized using ^13C6^15N2 lysine (Sigma-Aldrich). Protease assays with fluorogenic peptide substrates. The proteases IDE42-1019, recombinant human IDE42-1019 (R&D Systems), neprilysin (R&D), and angiotensin-converting enzyme (R&D) were assayed using the fluorophore/quencher-tagged peptide substrate Mca-[…](Dnp)-OH (R&D) according to the manufacturer's instructions and recommended buffers. […] The enzyme mixtures (48 μL) were transferred to a 96-well plate and combined with 2 μL of inhibitor in DMSO solutions, in 3-fold dilution series. […]

The chains behind the UniProt entries cited, without tags or fusion partners. Where a name states a change or a piece, a line headed by the entry shows the natural chain unless it says otherwise. Residues count along the entry.
UniProt P14735, 42-1019 limits assumed: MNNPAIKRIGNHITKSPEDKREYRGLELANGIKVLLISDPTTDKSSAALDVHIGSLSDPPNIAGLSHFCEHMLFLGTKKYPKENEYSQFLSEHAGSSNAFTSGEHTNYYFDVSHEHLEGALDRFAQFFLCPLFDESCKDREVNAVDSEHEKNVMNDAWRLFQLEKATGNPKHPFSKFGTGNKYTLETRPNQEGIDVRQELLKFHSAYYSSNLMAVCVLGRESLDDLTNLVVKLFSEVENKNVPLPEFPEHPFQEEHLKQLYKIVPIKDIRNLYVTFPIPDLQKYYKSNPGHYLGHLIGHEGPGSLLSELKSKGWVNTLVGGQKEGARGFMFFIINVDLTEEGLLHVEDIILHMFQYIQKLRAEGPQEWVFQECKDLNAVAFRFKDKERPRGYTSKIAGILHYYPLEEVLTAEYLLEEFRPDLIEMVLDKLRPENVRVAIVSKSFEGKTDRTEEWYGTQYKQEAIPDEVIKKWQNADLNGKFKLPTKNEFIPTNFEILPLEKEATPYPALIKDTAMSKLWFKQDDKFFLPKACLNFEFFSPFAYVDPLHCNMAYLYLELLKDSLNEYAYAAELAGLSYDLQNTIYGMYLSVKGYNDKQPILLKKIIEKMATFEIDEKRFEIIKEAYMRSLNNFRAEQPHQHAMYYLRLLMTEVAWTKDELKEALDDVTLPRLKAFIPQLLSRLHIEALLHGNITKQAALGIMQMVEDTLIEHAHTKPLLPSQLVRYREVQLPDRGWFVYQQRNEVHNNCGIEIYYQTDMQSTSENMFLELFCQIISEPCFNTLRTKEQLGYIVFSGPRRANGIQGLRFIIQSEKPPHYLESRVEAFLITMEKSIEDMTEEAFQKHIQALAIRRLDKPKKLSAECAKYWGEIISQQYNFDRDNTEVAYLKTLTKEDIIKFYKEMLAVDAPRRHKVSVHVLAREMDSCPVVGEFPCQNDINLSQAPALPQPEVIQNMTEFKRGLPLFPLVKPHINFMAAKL
UniProt P14735, 42-1019 A479L limits assumed: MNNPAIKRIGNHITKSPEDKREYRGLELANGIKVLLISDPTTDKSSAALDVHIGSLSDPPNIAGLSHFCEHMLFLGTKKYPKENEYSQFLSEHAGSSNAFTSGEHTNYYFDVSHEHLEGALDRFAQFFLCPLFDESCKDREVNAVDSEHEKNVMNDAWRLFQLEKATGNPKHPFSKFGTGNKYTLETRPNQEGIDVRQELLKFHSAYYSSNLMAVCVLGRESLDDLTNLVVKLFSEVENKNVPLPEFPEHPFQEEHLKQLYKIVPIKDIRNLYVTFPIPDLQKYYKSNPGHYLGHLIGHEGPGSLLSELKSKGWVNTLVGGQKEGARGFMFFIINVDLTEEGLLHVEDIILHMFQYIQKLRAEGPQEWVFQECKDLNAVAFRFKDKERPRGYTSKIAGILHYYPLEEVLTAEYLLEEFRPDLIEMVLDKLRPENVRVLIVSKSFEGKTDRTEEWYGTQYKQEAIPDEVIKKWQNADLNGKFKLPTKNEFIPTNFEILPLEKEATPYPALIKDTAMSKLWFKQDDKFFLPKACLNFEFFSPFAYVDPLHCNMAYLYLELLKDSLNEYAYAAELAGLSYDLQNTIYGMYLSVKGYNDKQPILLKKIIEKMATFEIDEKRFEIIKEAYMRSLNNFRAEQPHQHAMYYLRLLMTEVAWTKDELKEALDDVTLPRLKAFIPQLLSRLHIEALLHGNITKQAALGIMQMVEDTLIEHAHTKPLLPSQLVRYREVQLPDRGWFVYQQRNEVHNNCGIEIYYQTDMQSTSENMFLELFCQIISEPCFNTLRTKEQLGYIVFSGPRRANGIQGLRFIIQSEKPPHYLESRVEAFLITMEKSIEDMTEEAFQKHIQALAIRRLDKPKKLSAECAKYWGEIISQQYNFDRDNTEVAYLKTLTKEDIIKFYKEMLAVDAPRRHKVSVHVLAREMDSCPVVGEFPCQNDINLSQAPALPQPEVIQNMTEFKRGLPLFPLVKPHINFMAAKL
UniProt P14735, 42-1019 A198Q limits assumed: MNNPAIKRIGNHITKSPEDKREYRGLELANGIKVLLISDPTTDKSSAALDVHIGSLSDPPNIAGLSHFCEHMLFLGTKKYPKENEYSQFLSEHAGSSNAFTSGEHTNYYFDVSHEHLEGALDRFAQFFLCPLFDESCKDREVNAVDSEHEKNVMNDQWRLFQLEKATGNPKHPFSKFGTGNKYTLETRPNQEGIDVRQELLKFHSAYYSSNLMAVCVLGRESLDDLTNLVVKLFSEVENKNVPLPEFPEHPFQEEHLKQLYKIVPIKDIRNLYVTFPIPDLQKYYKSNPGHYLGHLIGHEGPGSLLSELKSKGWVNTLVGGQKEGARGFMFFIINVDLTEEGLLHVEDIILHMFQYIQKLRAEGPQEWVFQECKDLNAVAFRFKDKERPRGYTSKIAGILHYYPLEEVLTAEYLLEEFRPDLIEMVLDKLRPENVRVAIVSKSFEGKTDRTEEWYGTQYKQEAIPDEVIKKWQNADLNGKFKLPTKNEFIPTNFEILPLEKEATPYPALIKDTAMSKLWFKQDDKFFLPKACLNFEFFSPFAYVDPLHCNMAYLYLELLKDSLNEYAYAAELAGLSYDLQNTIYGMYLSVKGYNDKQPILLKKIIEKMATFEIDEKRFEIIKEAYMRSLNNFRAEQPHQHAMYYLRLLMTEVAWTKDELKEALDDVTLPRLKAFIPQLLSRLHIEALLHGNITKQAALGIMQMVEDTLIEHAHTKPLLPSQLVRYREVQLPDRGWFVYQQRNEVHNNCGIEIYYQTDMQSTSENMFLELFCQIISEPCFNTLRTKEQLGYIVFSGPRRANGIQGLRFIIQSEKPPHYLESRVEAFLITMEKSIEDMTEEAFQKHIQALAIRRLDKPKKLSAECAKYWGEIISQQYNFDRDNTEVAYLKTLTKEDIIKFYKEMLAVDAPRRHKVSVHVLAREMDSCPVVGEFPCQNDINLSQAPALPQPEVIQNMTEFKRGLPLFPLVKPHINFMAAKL
UniProt P14735, 42-1019 A198T limits assumed: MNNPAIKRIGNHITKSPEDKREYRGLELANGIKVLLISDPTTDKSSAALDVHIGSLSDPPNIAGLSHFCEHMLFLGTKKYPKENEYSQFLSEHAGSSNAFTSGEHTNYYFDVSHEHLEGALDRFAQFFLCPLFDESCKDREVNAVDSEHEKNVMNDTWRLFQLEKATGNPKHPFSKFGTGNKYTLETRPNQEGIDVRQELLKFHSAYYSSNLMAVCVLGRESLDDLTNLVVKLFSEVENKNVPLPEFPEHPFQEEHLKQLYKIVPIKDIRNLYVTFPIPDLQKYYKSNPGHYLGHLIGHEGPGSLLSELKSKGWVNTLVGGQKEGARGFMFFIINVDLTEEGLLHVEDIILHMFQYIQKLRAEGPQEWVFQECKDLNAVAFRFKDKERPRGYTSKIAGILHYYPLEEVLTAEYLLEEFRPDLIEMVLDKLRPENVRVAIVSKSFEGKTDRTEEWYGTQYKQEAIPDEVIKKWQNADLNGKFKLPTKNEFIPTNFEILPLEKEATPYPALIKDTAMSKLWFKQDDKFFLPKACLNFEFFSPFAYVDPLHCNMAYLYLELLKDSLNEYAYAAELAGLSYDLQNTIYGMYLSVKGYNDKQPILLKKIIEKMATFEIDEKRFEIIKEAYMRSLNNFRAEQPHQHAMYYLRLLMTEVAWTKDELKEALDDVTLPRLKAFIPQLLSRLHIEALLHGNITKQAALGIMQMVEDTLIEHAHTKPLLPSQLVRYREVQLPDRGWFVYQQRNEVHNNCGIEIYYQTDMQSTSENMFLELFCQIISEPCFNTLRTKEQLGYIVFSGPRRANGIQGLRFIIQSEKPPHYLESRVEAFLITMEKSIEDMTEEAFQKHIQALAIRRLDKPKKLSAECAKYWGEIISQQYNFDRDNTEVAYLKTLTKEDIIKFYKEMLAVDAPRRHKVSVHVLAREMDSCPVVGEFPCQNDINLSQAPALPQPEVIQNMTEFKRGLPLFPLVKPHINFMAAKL
UniProt P14735, 42-1019 A198Y limits assumed: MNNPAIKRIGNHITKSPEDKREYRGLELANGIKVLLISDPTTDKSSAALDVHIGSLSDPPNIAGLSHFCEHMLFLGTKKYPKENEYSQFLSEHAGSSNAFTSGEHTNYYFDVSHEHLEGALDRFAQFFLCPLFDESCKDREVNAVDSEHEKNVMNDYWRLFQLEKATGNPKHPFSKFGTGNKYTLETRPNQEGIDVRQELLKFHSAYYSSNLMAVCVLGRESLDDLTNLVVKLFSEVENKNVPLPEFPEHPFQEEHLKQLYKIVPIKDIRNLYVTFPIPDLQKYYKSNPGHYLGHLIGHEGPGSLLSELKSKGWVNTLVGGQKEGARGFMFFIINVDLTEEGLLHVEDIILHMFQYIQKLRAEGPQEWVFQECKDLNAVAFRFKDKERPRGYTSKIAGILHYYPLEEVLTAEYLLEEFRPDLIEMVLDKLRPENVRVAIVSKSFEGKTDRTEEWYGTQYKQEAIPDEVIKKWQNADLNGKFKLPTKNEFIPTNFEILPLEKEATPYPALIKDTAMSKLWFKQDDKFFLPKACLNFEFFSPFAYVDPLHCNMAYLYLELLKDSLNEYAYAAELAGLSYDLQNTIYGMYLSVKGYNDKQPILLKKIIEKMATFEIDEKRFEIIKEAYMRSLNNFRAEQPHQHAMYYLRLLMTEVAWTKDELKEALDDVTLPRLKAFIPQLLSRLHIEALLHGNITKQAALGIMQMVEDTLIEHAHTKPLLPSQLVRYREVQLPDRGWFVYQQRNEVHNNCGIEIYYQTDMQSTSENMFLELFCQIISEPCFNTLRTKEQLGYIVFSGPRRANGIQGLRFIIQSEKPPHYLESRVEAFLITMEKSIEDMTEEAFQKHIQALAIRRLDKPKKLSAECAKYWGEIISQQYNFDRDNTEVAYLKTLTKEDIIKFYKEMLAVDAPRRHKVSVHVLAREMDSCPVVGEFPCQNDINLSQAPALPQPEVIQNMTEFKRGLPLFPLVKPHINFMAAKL
UniProt P14735, 42-1019 F202L limits assumed: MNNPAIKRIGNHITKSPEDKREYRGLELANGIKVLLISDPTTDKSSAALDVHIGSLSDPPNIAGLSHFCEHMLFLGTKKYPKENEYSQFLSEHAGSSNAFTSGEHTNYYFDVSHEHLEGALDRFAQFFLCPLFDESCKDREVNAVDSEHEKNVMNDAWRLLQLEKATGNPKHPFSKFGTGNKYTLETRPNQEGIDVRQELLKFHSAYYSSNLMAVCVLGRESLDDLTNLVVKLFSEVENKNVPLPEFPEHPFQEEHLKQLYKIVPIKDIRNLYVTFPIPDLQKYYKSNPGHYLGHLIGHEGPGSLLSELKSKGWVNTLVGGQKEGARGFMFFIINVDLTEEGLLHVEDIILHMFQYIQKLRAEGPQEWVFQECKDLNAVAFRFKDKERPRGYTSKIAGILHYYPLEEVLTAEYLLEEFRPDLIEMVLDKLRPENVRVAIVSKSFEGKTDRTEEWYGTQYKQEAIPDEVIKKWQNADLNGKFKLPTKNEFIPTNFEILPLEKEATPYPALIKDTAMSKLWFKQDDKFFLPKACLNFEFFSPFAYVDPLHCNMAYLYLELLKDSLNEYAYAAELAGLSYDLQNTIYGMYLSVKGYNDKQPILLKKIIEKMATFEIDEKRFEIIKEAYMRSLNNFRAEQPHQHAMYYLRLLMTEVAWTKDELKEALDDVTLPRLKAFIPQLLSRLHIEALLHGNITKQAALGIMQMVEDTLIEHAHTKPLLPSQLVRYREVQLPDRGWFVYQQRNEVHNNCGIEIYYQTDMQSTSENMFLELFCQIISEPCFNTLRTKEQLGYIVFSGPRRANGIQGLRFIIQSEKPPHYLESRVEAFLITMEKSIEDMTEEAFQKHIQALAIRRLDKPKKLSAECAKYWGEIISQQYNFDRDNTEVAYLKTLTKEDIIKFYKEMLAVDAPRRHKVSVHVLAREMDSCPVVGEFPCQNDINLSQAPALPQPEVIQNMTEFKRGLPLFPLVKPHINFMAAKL
UniProt Q9BYT8, 38-704 limits assumed: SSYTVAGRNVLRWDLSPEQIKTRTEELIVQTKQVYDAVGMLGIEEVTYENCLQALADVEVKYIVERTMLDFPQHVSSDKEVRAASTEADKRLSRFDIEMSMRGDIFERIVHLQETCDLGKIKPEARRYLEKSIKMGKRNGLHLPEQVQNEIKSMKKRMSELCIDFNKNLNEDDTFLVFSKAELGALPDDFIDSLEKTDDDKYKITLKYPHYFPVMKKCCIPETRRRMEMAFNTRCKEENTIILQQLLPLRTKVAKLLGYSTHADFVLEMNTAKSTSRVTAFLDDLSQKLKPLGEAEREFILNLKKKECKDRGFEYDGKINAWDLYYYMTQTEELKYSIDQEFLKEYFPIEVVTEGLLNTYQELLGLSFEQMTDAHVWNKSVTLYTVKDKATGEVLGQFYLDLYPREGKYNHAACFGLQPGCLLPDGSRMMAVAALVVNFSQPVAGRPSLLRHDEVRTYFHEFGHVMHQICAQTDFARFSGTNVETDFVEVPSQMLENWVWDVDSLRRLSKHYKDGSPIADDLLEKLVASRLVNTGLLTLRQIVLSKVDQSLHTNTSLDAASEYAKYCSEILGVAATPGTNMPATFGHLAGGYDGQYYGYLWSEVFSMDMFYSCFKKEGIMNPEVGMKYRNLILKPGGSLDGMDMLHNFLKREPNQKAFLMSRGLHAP

The target of data set [2] is neurolysin (NLN) (Homo sapiens, UniProt Q9BYT8). The data set is described as follows: Protease assay with substrate Mca-PLGPK(Dnp)-OH.
Data set [3] deals with thimet oligopeptidase (THOP) (Homo sapiens, UniProt P52888). The data set is described as follows: Protease assay with substrate Mca-PLGPK(Dnp)-OH.
The target of data set [4] is angiotensin converting-enzyme (ACE) (Homo sapiens, UniProt P12821). Kind of data set: Protease assay with fluorogenic peptide substrate.
Data set [5] concerns the target neprilysin (NEP) (Homo sapiens, UniProt P08473). Kind of data set: Protease assay with fluorogenic peptide substrate.
The target in data set [6] is matrix metalloprotease 1 (MMP1) (Homo sapiens, UniProt P03956). Kind of data set: Protease assay with substrate Mca-KPLGL-Dpa-AR-NH2.
Data set [7] addresses hIDE WT (Homo sapiens, UniProt P14735). Kind of data set: Small molecule-enzyme mutant complementation study, wild type. In kind it is biochemical. On the procedure:
(§1) Protease assays with fluorogenic peptide substrates. The proteases IDE42-1019, recombinant human IDE42-1019 (R&D Systems), neprilysin (R&D), and angiotensin-converting enzyme (R&D) were assayed using the fluorophore/quencher-tagged peptide substrate Mca-[…](Dnp)-OH (R&D) according to the manufacturer's instructions and recommended buffers. For IDE the recommended buffer is 50 mM Tris pH 7.5, 1 M NaCl. The enzyme mixtures (48 μL) were transferred to a 96-well plate and combined with 2 μL of inhibitor in DMSO solutions, in 3-fold dilution series. The mixtures were allowed to equilibrate for 10 min and the enzymatic reaction was started by addition of substrate peptide in assay buffer (50 μL), mixed, and monitored on a fluorescence plate reader (excitation at 320 nm, emission at 405 nm). Similarly, thimet oligopeptidase (R&D) and neurolysin (R&D) were assayed using substrate Mca-PLGPK(Dnp)-OH (R&D) according to the manufacturer's instructions and recommended buffers. Matrix metalloproteinase-1 (R&D) was activated and assayed according to the manufacturer's instructions with substrate Mca-KPLGL-Dpa-AR-NH2 (R&D). All assay data points were obtained in duplicate. Data for the Yonetani-Theorell double inhibition plot was generated using 1 μL of each inhibitor (6bK, and Ii1 or bacitracin) under otherwise identical conditions as above, at concentrations corresponding to ⅓×, 1×, 3× and 9× of respective IC50 values against hIDE (R&D).^54,55
Site-directed mutagenesis, expression, and purification of human IDE. […]
All PCR products were purified on microcentrifuge membrane columns (MinElute®, Qiagen) and quantified by UV absorbance (NanoDrop). […]
The plasmid was extracted using a microcentrifuge membrane column kit (Miniprep®, Qiagen), and the sequence of genes and vector junctions were confirmed by Sanger sequencing (Table 6). […] Expression of His6-tagged IDE proteins was induced when the culture measured OD600 ˜0.6 by addition of isopropyl-β-D-1-thiogalactopyranoside (IPTG) to 1 mM final concentration, incubated overnight at 37° C., followed by centrifugation at 10,000 g for 30 min at 4° C. […]

Data set [8] addresses hIDE A198Q (Homo sapiens, UniProt P14735, A198Q). Kind of data set: Small molecule-enzyme mutant complementation study. As to conditions: A198Q vs hIDE WT, batch 1. In kind it is biochemical. On the procedure: as §1
(§2) Site-directed mutagenesis, expression, and purification of human IDE. The reported N-His6-tagged human IDE42-1019 construct was introduced in the expression plasmid pTrcHis-A (Invitrogen) using primers for uracil-specific excision reactions (USER) by Taq (NEB) and Pfu polymerases (PfuTurbo CX®, Agilent). The IDE gene was amplified with the primers 5′-[…]-dU-[…] and 5′-[…] G-dU-[…] (underlined sequences represent overhangs, and italics highlight the PCR priming sequence). Similarly, the pTrcHis-A vector was amplified for USER cloning with the primers 5′-[…] TGA-dU-[…] CCC and 5′-[…]-dU-[…]. Mutant IDE constructs were generated by amplifying the full vector construct with USER cloning primers introducing a mutant overhang (Table 5).
(§3) All PCR products were purified on microcentrifuge membrane columns (MinElute®, Qiagen) and quantified by UV absorbance (NanoDrop). Each fragment (0.2 pmol) was combined in a 10 μL reaction mixture containing 20 units DpnI (NEB), 0.75 units of USER mix (Endonuclease VIII and Uracil-DNA Glycosylase, NEB), 20 mM Tris-acetate, 50 mM potassium acetate, 10 mM magnesium acetate, 1 mM dithiothreitol at pH 7.9 (1× NEBuffer 4). The reactions were incubated at 37° C. for 45 min, followed by heating to 80° C. and slow cooling to 30° C. (0.2° C./s). The hybridized constructs were directly used for heat-shock transformation of chemically competent NEB turbo E. coli cells according to the manufacturer's instructions. Transformants were selected on carbenicillin LB agar, and isolated colonies were cultured overnight in 2 mL LB.
(§4) The plasmid was extracted using a microcentrifuge membrane column kit (Miniprep®, Qiagen), and the sequence of genes and vector junctions were confirmed by Sanger sequencing (Table 6). The plasmid constructs were transformed by heat-shock into chemically-competent expression strain Rosetta 2 (DE3) pLysS E. coli cells (EMD Millipore), and selected on carbenicillin/chloramphenicol LB agar. Cells transformed with IDE pTrcHis A constructs were cultured overnight at 37° C. in 2 XYT media (31 g in 1 L) containing 100 μg/mL ampicillin and 34 μg/mL chloramphenicol. Expression of His6-tagged IDE proteins was induced when the culture measured OD600 ˜0.6 by addition of isopropyl-β-D-1-thiogalactopyranoside (IPTG) to 1 mM final concentration, incubated overnight at 37° C., followed by centrifugation at 10,000 g for 30 min at 4° C. […]

Data set [9] addresses hIDE A198T (Homo sapiens, UniProt P14735, A198T). Kind of data set: Small molecule-enzyme mutant complementation study. Conditions: A198T vs hIDE WT, batch 2. In kind it is biochemical. How it is done: as §1, §2, §3, §4
The target of data set [10] is hIDE A198Y (Homo sapiens, UniProt P14735, A198Y). Kind of data set: Small molecule-enzyme mutant complementation study. Conditions: A198Y vs hIDE WT, batch 2. In kind it is biochemical. How it is done: as §1, §2, §3, §4
Data set [11] deals with hIDE F202L (Homo sapiens, UniProt P14735, F202L). Kind of data set: Small molecule-enzyme mutant complementation study. In kind it is biochemical. As to conditions: F202L vs hIDE WT, batch 1. On the procedure:
as §1, §2, §3, §4

The target in data set [12] is hIDE F202R (Homo sapiens, UniProt P14735, F202R). Kind of data set: Small molecule-enzyme mutant complementation study. In kind it is biochemical. Conditions: F202R vs hIDE WT, batch 2. On the procedure:
as §1, §2, §3, §4

Data set [13] deals with hIDE G361Q (Homo sapiens, UniProt P14735, G361Q). Kind of data set: Small molecule-enzyme mutant complementation study. In kind it is biochemical. Conditions: G361Q vs hIDE WT, batch 3. On the procedure: as §1, §2, §3, §4
In data set [14] the target is hIDE G362Q (Homo sapiens, UniProt P14735, G362Q). Kind of data set: Small molecule-enzyme mutant complementation study. Conditions: G362Q vs hIDE WT, batch 3. In kind it is biochemical. How it is done: as §1, §2, §3, §4
Data set [15] addresses hIDE I310R (Homo sapiens, UniProt P14735, I310R). Kind of data set: Small molecule-enzyme mutant complementation study. In kind it is biochemical. As to conditions: I310R vs hIDE WT, batch 2. On the procedure:
as §1, §2, §3, §4

Data set [16] concerns the target hIDE I374M (Homo sapiens, UniProt P14735, I374M). The data set is described as follows: Small molecule-enzyme mutant complementation study. In kind it is biochemical. Conditions: I374M vs hIDE WT, batch 1. How it is done:
as §1, §2, §3, §4

Data set [17] concerns the target hIDE K364A (Homo sapiens, UniProt P14735, K364A). The data set is described as follows: Small molecule-enzyme mutant complementation study. Conditions: K364A vs hIDE WT, batch 2. In kind it is biochemical. On the procedure: as §1, §2, §3, §4
The target of data set [18] is hIDE V360Q (Homo sapiens, UniProt P14735, V360Q). Kind of data set: Small molecule-enzyme mutant complementation study. In kind it is biochemical. As to conditions: V360Q vs hIDE WT, batch 1. On the procedure:
as §1, §2, §3, §4

The target in data set [19] is hIDE V360R (Homo sapiens, UniProt P14735, V360R). The data set is described as follows: Small molecule-enzyme mutant complementation study. In kind it is biochemical. As to conditions: V360R vs hIDE WT, batch 3. How it is done:
as §1, §2, §3, §4

Data set [20] has as its target hIDE W199F (Homo sapiens, UniProt P14735, W199F). Kind of data set: Small molecule-enzyme mutant complementation study. As to conditions: W199F vs hIDE WT, batch 2. In kind it is biochemical. How it is done: as §1, §2, §3, §4
Data set [21] has as its target hIDE W199Y (Homo sapiens, UniProt P14735, W199Y). The data set is described as follows: Small molecule-enzyme mutant complementation study. In kind it is biochemical. As to conditions: W199Y vs hIDE WT, batch 2. On the procedure: as §1, §2, §3, §4
For data set [22], the target named is hIDE Y314F (Homo sapiens, UniProt P14735, Y314F). Kind of data set: Small molecule-enzyme mutant complementation study. As to conditions: Y314F vs hIDE WT, batch 2. In kind it is biochemical. On the procedure:
as §1, §2, §3, §4

Data set [23] concerns the target hIDE A479L (Homo sapiens, UniProt P14735, A479L).
The subject of data set [24] is lean and DIO C57BL/6J mice. Kind of data set: Oral glucose tolerance test (OGTT). Conditions: lean (80 mg/kg) and DIO (60 mg/kg) mice, single i.p. dose 30 min before glucose gavage 3.0 g/kg, vs vehicle; tested form: TFA salt.
Data set [25] deals with lean and DIO C57BL/6J mice. Kind of data set: i.p. injected glucose tolerance test (IPGTT). Conditions: tested form: TFA salt.

Like-named read-outs stand apart in the source and are kept apart here.

In the case of `N=C(N)NCCC[C@H](NC(=O)C(CC(=O)NO)Cc1ccc2ccccc2c1)C(=O)N[C@@H](Cc1c[nH]c2ccccc12)C(=O)N[C@@H](CCC(=O)O)C(N)=O` (stereo partly drawn), the IC50 – broadly, the midpoint of a concentration-inhibition curve – in data set [1] was 0.6 nM; in data set [2] it was 185 nM; in data set [3], 6 nM. Moreover, the inhibition entry in [4], in data set [5] and in data set [6] was “not” throughout. The IC50 shift in [7] (batch 1 (reference)) is recorded as 1.0 fold; in [7] (batch 2 (reference)), 1.0 fold; in data set [7] (batch 3 (reference)), 1.0 fold; in data set [8] it was 1.0 fold; in data set [9] it was 1.0 fold; in data set [10], 1.1 fold. Also, the IC50 shift in data set [11] amounted to 1.7 fold; in data set [12], 1.1 fold; in data set [13], 0.9 fold; in [14], 0.6 fold; in [15] it was 1.9 fold; in [16] it was 1.0 fold. Besides, the IC50 shift in data set [17] is recorded as 1.0 fold; in [18] it was 0.9 fold; in data set [19], 0.9 fold; in data set [20], 1.8 fold; in data set [21], 1.4 fold; in data set [22], 1.0 fold. Besides, the IC50 shift in [23] came out at 0.9.
As for `NCCCC[C@H]1NC(=O)/C=C/C(=O)N[C@H](C(N)=O)CCCCNC(=O)[C@@H](Cc2ccc(C(=O)c3ccccc3)cc2)NC(=O)[C@@H](CC2CCCCC2)NC1=O`, the IC50 in data set [1] (tested form: TFA salt) is greater than 100000 nM. In [24], the oral glucose tolerance entry is “similar”. In data set [25] (DIO mice, 90 mg/kg), the “IPGTT response at high dose” value is reported as “potential weak activity”. The “glucose tolerance after i.p. glucose injection” value in [25] (lean and DIO mice, glucose 1.5 g/kg i.p., vs vehicle) is “neither effect was observed”.
Consider `NC(=O)CC[C@@H]1NC(=O)/C=C/C(=O)N[C@H](C(N)=O)CCCCNC(=O)[C@@H](Cc2ccc(C(=O)c3ccccc3)cc2)NC(=O)[C@H](CC2CCCCC2)NC1=O`, for which the IC50 shift in data set [23] was greater than 600.

Values taken from patent US20160282364A1, “ASSAY FOR INSULIN-DEGRADING ENZYME (IDE) INHIBITORS” (PRESIDENT AND FELLOWS OF HARVARD COLLEGE, priority 2013, published 2016).
